Results reported in ChEMBL document CHEMBL4808148, “HDAC6 screening dataset using tau-based substrate in an enzymatic assay yields selective inhibitors and activators” (2021).
This list holds what a sample rich in strong results left over.

biological target: T1, Protein deacetylase HDAC6 (Homo sapiens) (UniProt Q9UBN7); conditions: at 10 µM
T1 sequence (whole entry): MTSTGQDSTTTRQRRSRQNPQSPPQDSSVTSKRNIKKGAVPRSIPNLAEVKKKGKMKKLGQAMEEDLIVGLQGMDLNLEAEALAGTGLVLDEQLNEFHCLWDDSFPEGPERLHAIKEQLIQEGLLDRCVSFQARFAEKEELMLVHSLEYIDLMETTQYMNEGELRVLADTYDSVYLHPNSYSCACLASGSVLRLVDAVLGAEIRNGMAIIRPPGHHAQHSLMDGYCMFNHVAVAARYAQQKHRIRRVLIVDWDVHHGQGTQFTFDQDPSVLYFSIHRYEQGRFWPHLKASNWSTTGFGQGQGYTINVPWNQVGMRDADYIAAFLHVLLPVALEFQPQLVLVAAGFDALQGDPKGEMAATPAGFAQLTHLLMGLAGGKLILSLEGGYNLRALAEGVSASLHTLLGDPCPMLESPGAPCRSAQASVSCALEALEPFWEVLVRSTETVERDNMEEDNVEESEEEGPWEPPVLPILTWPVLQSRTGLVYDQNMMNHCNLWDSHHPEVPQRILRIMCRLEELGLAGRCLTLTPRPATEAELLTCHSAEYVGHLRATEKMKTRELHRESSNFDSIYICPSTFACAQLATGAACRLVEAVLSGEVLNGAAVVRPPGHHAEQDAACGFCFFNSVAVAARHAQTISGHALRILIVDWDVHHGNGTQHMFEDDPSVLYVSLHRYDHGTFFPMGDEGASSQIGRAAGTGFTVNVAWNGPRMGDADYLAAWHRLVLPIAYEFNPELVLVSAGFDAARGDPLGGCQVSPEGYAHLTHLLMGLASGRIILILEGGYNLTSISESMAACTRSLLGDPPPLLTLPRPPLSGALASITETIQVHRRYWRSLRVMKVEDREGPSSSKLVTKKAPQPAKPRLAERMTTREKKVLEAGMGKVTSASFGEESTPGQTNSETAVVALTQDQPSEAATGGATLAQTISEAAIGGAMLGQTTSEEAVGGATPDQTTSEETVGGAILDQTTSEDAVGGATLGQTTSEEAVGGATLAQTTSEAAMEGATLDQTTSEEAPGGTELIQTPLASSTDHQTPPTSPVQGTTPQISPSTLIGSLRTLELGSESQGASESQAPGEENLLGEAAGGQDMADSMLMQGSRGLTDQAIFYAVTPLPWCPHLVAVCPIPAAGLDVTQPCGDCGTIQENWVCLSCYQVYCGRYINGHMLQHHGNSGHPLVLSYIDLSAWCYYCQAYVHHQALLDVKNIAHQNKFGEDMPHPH

| Compound | inhibition [%] |
| --- | --- |
| Clc1ccc(N2CCN(Cc3c[nH]c4ncccc34)CC2)cc1 | 0.96 |
